# Data as given in PubChem BioAssay AID504894 (National Center for Advancing Translational Sciences (NCATS), 2011).
# The list shows a part of the results, in another mix than the full data. Calls of active or inactive are those of the source. Calls come from the whole dose curve; as a rule, active = well fitted activation curve with a large enough effect; inconclusive = small, poorly fitted or top-dose-only effect, or another doubt; inactive = no such curve, though single readings can be large or run the other way.
# Assay: Activators of T cell receptors: qHTS campaign; note: % of control where 0% means no effect
# Conditions: primary human leukocytes, anti-CD3, IL-2 HTRF, 48 h; at 9.22 µM (top of the series)
# Source text: Normally activation of naive T cells requires two signals. 1. A signal through the T cell receptor (TCR) which provides antigen specificity to the response. 2. Signals through co-stimulatory molecules, which are necessary for proliferation, survival and cytokine production. In the absence of co-stimulatory signals T cells are not effectively activated, and may even be rendered anergic or unresponsive to subsequent signaling. This lack of costimulation has been shown in multiple model systems to be a major factor in the limited strength and effectiveness of anti-tumor T cell responses. The goal of this project is to identify small molecule compounds that will stimulate T cell activation in the presence of TCR signaling but in the absence of co-stimulatory signals, thereby allowing activation of naive T cells in the absence of co-stimulation. Identification of such compounds would have clear experimental and clinical applications in instances where desirable antigen-specific immune responses are not generated due to a lack of co-stimulation, for example in the generation of anti-tumor responses. […] The screen will be carried out using a novel homogeneous time resolved fluorescence energy transfer (HTRF) assay to measure production of the cytokine IL-2 by activated T cells and will be tested against the NIH Molecular Libraries Small Molecule Repository (MLSMR). […]
row,Structure (SMILES),activation of IL-2 secretion
1,CCC(=O)N(c1ccccc1)C1(COC)CCN(CCn2nnn(CC)c2=O)CC1,inactive: -11.3%
2,CCC(=O)N(c1ccccc1)C1(COC)CCN(CCc2cccs2)CC1,inactive: 2.93%
